Screening data: PubChem, several laboratories
A selection: hits, their analogues and other compounds. The true share with any hit is near 0.94%.
Granule exo inh: blocks lytic granule exocytosis; AID 651702; inhibition, % at 10 µM; TALL-104 LAMP-1 surface exposure, flow cytometry; cells stimulated with thapsigargin and PMA; 0.66% of 360,000 active;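 active = inhibition above about 55%, limit read from the data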
pCIP destab: compounds decreasing mouse p/CIP protein stability; F442A p/CIP-EGFP cells, EGFP fluorescence, 16 h; Q05BA5; 0.01% of 290,000 active; decrease of EGFP signal, % at 10 µM;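 active = EGFP signal decrease of at least 30% at 10 µM or well 3 SD below plate mean, unless failing retest; inactive = the rest, including hits failing retest or dose response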
UUG fidelity: modulators of start codon recognition fidelity in yeast; AID 602363; activity score, % at 18.7 µM; S. cerevisiae UUG-firefly luciferase reporter, luminescence/redox ratio; actives 0.13% (n = 350,000);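 active = replicate mean at a twofold rise or more, about +100% in these data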;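 note: firefly luciferase made from a UUG start codon reports start codon fidelity; reporter light over untreated wells divided by growth signal over untreated wells; some hits fall short of that in this replicate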
PKA-R2B activ: activates the human PKA-R2B holoenzyme complex | P22694+P31323 | PKA-R2B holoenzyme dissociation, Cy5-IP20 fluorescence polarization; R2B truncated from residue 108, S112A mutant; 0% DMSO only, 100% 113 µM cGMP | 0.079% of 340,000 active | activation, % at 11.4 µM;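 active = activation above a cutoff set at the mean over all compounds plus 3 SD, cut at about 18% in these data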;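 also: higher means more holoenzyme dissociation and a rise in polarization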
PKA-R1A act: PKA-R1A complex activation; P00514+P68181; PKA-R1A dissociation, Cy5-IP20 fluorescence polarization; scaled: DMSO 0%, 113 µM cGMP 100%; activation, % at 11.4 µM; 0.083% of 340,000 active;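 active = percent activation above the mean of all tested compounds plus 3 SD, cut at about 19% in these data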;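 also: higher means more PKAc released from R1A so a rise in polarization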
ABCB6 inh MLPCN: human ABCB6 transporter inhibition; Q9NP58; K562-ABCB6 porphyrin accumulation, flow cytometry, 1 h; hits give low values; fluorescence ratio to DMSO, % at 10 µM; 0.19% of 360,000 active;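 active = fluorescence ratio to DMSO below 75%, the collection mean minus 3 SD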;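 also: signal is porphyrin accumulated inside mitochondria; 100% equals median channel fluorescence of DMSO control wells; lower ratio means ABCB6 inhibition with less porphyrin fluorescence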
R2B FP artifact: counter-screen for PKA-R2B activators: fluorescence polarization artifacts; 6% of 270 active; AID 504796; FP artifact counterscreen; shares compounds with PKA-R2B activ; activation, % at 11.4 µM; in the data active = activation above about 20%;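 also: Cy5 labelled IP20 peptide probe with compound but no PKA protein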
PKA-R2B act conf: PKA-R2B complex activation, confirmation; shares compounds with PKA-R2B activ; fluorescence polarization; activation, % at 11.4 µM; 9% of 270 active; in the data active = activation above about 19%
Numbers without * were called inactive; . = not tested or not shown.

Sequence of screens: Granule exo inh | pCIP destab | UUG fidelity | PKA-R2B activ | PKA-R1A act | ABCB6 inh MLPCN | R2B FP artifact | PKA-R2B act conf
C[C@H](CO)N1C[C@H](C)[C@@H](CN(C)S(C)(=O)=O)Oc2ncc(C#CCN(C)C)cc2C1=O
  . | . | 27 | . | . | . | . | .
CCCN1[C@@H]2c3ccc(C4=CCCCC4)c(=O)n3C[C@H]1[C@H](CO)[C@H]2C(=O)NCC
  . | . | 7 | . | . | . | . | .
O=C(c1ccco1)N1CCN(C(=O)c2ccc(CS(=O)c3ccc(Cl)cc3)o2)CC1 (stereo not drawn)
  -3 | 5 | -15 | 19* | -4 | 100 | 5 | -1
Cc1ccc(S(=O)Cc2ccc(C(=O)N3CCN(C(=O)c4ccco4)CC3)o2)cc1 (stereo not drawn)
  1 | -11 | -7 | -1 | -5 | 100 | . | .
CC(C)Cn1c(=O)c(C(=O)NCc2ccccn2)c(O)c2ccccc21
  1 | -11 | 5 | 21* | 2 | 99 | -1 | -4
COCC#Cc1cnc2c(c1)C(=O)N([C@H](C)CO)C[C@@H](C)[C@H](CN(C)C(=O)c1cnccn1)O2
  . | . | -9 | . | . | . | . | .
COc1ccc(/C=C2\SC(=O)N(CC(=O)NNC(=O)c3ccccc3O)C2=O)cc1
  10 | -1 | . | 20* | 15 | 107 | 13 | 21*
C[C@@H]1CN([C@H](C)CO)S(=O)(=O)c2ccc(C3=CCCC3)cc2O[C@@H]1CN(C)S(=O)(=O)c1cn(C)cn1
  . | . | -9 | . | . | . | . | .
O=S1(=O)CCOC(CO)CN1Cc1ccc(Cl)c(Cl)c1 (stereo not drawn)
  -1 | . | 0 | 10 | 3 | 99 | -3 | -1
O=S1(=O)CCN(Cc2ccc(Cl)c(Cl)c2)CC1
  7 | -2 | -14 | 7 | -2 | 97 | . | .
CCN1CCN(Cc2nnc(-c3ccccc3)o2)CC1
  -10 | -5 | -36 | -5 | 1 | 96 | . | .
CC1CN(Cc2nnc(-c3ccccc3)o2)CC(C)O1 (stereo not drawn)
  0 | 14 | . | 22* | -4 | 96 | 4 | 2
C=CCN(CCNP(=O)(OCC)OCC)CP(=O)(OCC)OCC
  0 | -8 | 5 | 20* | 16 | 103 | 4 | 0
COc1ccc(NC(=O)Nc2ccc3c(c2)[C@@H]2C[C@H](CC(=O)NC4CCCC4)O[C@H](CO)[C@@H]2O3)cc1
  . | . | -4 | . | . | . | . | .
Cc1ccc(S(=O)(=O)NNC(=O)C2CC=CCC2C(=O)O)cc1 (stereo not drawn)
  -2 | 8 | . | 21* | 4 | 103 | 3 | 1

Marked active in PKA-R2B act conf, of those listed so far:
mol | Granule exo inh | pCIP destab | UUG fidelity | PKA-R2B activ | PKA-R1A act | ABCB6 inh MLPCN | PKA-R2B act conf
COc1ccc(/C=C2\SC(=O)N(CC(=O)NNC(=O)c3ccccc3O)C2=O)cc1 | 10 | -1 | . | 20* | 15 | 107 | 21*

More results follow.
smiles,Granule exo inh,pCIP destab,UUG fidelity,PKA-R2B activ,PKA-R1A act,ABCB6 inh MLPCN,R2B FP artifact,PKA-R2B act conf
Cc1ccc(S(=O)(=O)NNC(=O)C(=O)NNS(=O)(=O)c2ccc(C)cc2)cc1,2,-1,-19,0,6,103,.,.
Cn1ncc(Br)c1C(=O)NC1C2CC3CC(C2)CC1C3 (stereo not drawn),-8,-11,.,-9,2,95,.,.
Cc1c(Cl)c(C(=O)NC2C3CC4CC(C3)CC2C4)nn1C (stereo not drawn),-2,-4,-5,20*,1,105,3,1
C[C@@H]1CCCCO[C@@H](CN(C)S(=O)(=O)c2ccc(F)cc2)[C@H](C)CN([C@H](C)CO)C(=O)c2cc(NC(=O)Nc3ccc(F)cc3)ccc2O1,.,.,-19,.,.,.,.,.
Nc1nnc(Cc2cccc(Br)c2)s1,4,-7,-8,20*,7,98,1,-4
Cc1cccc(C)c1NC(=O)C(NC=O)c1ccc(N(C)C)cc1 (stereo not drawn),13,-1,-8,20*,9,102,-4,-1
Cc1cccc(C)c1NC(=O)C(NC=O)c1ccccc1Cl (stereo not drawn),1,-20,-15,-12,1,98,.,.
COCCNC(=O)COCc1cc(-c2ccc3c(c2)OCO3)on1,-6,-7,-14,-1,-9,98,.,.
COCCNC(=O)c1cc(-c2ccc3c(c2)OCO3)on1,12,-16,-22,18*,7,109,-2,1

One compound at a time (already shown).
Record of `O=S1(=O)CCOC(CO)CN1Cc1ccc(Cl)c(Cl)c1` (stereo not drawn) : Granule exo inh: -1; pCIP destab: .; UUG fidelity: 0; PKA-R2B activ: 10; PKA-R1A act: 3; ABCB6 inh MLPCN: 99; R2B FP artifact: -3; PKA-R2B act conf: -1
Record of `Nc1nnc(Cc2cccc(Br)c2)s1` : Granule exo inh: 4; pCIP destab: -7; UUG fidelity: -8; PKA-R2B activ: 20*; PKA-R1A act: 7; ABCB6 inh MLPCN: 98; R2B FP artifact: 1; PKA-R2B act conf: -4
